The record followed here is PMC10740061 (Food Chemistry: X, 2023).

Marks after values point to notes of the source that are not given here.

The subject of the data set is Caco-2 monolayer. Nature of the data set: Caco-2 monolayer transmembrane transport, apical to basolateral. The settings on record: WD (wheat flour digested products) 400 µg/mL; 40 µM flavonoid; 6 h; A to B; mean ± SD (n = 3). Type of data set: in vitro ADME, human. On the technique in general: Passage across Caco-2 layers is used to estimate intestinal permeability.

`Oc1cc(O)c2c(c1)O[C@H](c1ccc(O)c(O)c1)[C@@H](O)C2` [(+)-Catechin]: the PappAtoB was 10.77 ± 0.07^a × 10^-6 cm/s.
